# From patent US9579406B2, “Phospholipid ether analogs as agents for detecting and locating cancer, and methods thereof” (Cellectar, Inc., priority 2004, dated 2017)
# Entries after “also recorded” stand apart in the source; their conditions may differ.
# Experiments:
# C6 glioma = experiment: Tissue distribution in C6 glioma tumor-bearing rats; format: in vivo
# Experimental: The inventors evaluated the imaging characteristics of NM404 in C6 glioma (3-5 mm in diameter) tumor-bearing and sham-operated rats. Tissue distribution analysis was performed with ^125I-NM404 at 24 and 48 hours after injection, and a separate group of animals subjected to microPET scanning at various times following injection of ^124I-NM404. Biodistribution analysis indicated minimal NM404 radioactivity in normal brain tissue, however, tumor/brain ratios (% injected dose/g) were 10.6, and 12.0 at 24, 48 hours, respectively. (FIG. 15) NM404 tumor uptake was corroborated by histology.
# [1] = MIRDOSE radiation dose estimates for the adult female; set-up: species or system human (from female rat biodistribution data)
# Experimental: Dosimetry estimation regarding I-125-NM404 for an adult female patients were calculated based on SPECT imaging data using female non-tumor bearing rats following administration of I-131-NM404. The results are listed below:
# The dosimetry data were calculated from SPECT imaging in rats using I-131-NM404 and then converted to I-125-NM404. The adrenal gland seems to be the dose-limiting or critical organ for radiation exposure. In the SPECT imaging experiments the thyroids of rats were unblocked. Thus, the thyroid calculations should be evaluated with caution.
# [2] = test system: human PC-3 prostate tumor xenografts; experiment: Scintigraphy and tissue distribution in SCID mice bearing human PC-3 prostate tumor xenografts; format: in vivo; conditions: 3 days after injection
# Source text: Gamma camera scintigraphy images shown in FIG. 19 directly compare the tumor uptake and body clearance of second generation analog ^125I-NM-404 (6) versus its shorter chain, first generation predecessor, ^125I-NM-324 (2) at 1, 2, and 4 days post administration in immune-compromised SCID mice bearing human PC-3 prostate tumor xenografts.
# Extensive quantitative tissue distribution results obtained at 1, 3, 5, and 8 days following administration of radioiodinated NM-404 in this model indicated rapid elimination of radioactivity from all normal tissues over the 8 day evaluation period. Tumor uptake, however, continued to increase up until day 5 when it reached 18% injected dose per gram of tumor. […] Tumor to background tissue ratios exceeded 4, 6.8, 23, and 9 in blood, liver, muscle, and prostate, respectively, 3 days after injection and continued to improve at 5 and 8 days. Again, although thyroid levels ranged from 26 to 54% injected dose per gram of tissue, these levels are actually quite low and represent an extremely small percentage of the injected dose when the exceedingly small mass of the organ is considered and the data are presented on a percent administered dose per organ basis.
# [3] = test system: xenograft and spontaneous tumor models; format: in vivo; conditions: radioiodinated NM404
# [4] = test system: non-small cell lung cancer; experiment: Planar gamma-camera scintigraphy with 131I-NM-404 in NSCLC patients; conditions: human, in vivo
smiles,measurement,setting,value
C[N+](C)(C)CCOP(=O)([O-])OCCCCCCCCCCCCCCCCCCc1ccc([125I])cc1 [Compound I-125-NM404],tumor/brain ratio (% injected dose/g),C6 glioma; 24 hours,10.6
same,tumor/brain ratio (% injected dose/g),C6 glioma; 48 hours,12.0
same,RESIDENCE TIME,[1]; Adrenals,0.0899 h
same,RESIDENCE TIME,[1]; Heart Wall,0.654 h
same,RESIDENCE TIME,[1]; Kidneys,1.22 h
same,RESIDENCE TIME,[1]; Liver,5.71 h
same,RESIDENCE TIME,[1]; Lungs,4.5 h
same,RESIDENCE TIME,[1]; Muscle,37.8 h
same,RESIDENCE TIME,[1]; Ovaries,0.0395 h
same,RESIDENCE TIME,[1]; Red Marrow,3.83 h
same,RESIDENCE TIME,[1]; Remainder,18.3 h
same,RESIDENCE TIME,[1]; Small Intestine,4.68 h
same,RESIDENCE TIME,[1]; Spleen,0.629 h
same,RESIDENCE TIME,[1]; Thyroid,0.444 h
same,RESIDENCE TIME,[1]; Urinary Bl Cont,0.233 h
same,RESIDENCE TIME,[1]; Uterus,0.334 h
"C[N+](C)(C)CCOP(=O)([O-])OCCCCCCCCCCCCCCCCCCc1ccc(I)cc1 [NM-404, 18-(4-iodophenyl)-octadecylphosphocholine]","tumor to background tissue ratio, blood",[2],exceeded 4
same,"tumor to background tissue ratio, liver",[2],> 6.8
same,"tumor to background tissue ratio, muscle",[2],> 23
same,"tumor to background tissue ratio, prostate",[2],> 9
same,tumor models with tumor selectivity / selective retention,[3],27/27
same,liver and abdominal radioactivity levels relative to NM-324,[4],"much lower; also recorded: significantly lower liver, kidney and abdominal background radioactivity levels"
